Earlier results in patent publication US8206983B2, “In vitro methods for the induction and maintenance of plant cell lines as single suspension cells with intact cell walls” (Dow AgroSciences, LLC., priority 2006, dated 2012).

Tested on: soybean suspension cells
Conditions: cited from earlier work

COc1cc2c(c(OC)c1OC)-c1ccc(OC)c(=O)cc1[C@@H](NC(C)=O)CC2 [Colchicine]
concentration for the production of chromosomal polyploidy: 5000 to 20000 µM
